Experimental data: PMC10787067, “EBF2 Links KMT2D‐Mediated H3K4me1 to Suppress Pancreatic Cancer Progression via Upregulating KLLN” (Advanced Science, 2023)

Biological target: T1, His‐EBF2 (Homo sapiens, UniProt Q9HAK2)
T1 construct: His‐EBF2 plasmid was constructed by inserting the CDS of EBF2 into PET‐28a vector; His; made in house; host or cells: E. coli BL21 (DE3)
T1 sequence (Q9HAK2 1-575): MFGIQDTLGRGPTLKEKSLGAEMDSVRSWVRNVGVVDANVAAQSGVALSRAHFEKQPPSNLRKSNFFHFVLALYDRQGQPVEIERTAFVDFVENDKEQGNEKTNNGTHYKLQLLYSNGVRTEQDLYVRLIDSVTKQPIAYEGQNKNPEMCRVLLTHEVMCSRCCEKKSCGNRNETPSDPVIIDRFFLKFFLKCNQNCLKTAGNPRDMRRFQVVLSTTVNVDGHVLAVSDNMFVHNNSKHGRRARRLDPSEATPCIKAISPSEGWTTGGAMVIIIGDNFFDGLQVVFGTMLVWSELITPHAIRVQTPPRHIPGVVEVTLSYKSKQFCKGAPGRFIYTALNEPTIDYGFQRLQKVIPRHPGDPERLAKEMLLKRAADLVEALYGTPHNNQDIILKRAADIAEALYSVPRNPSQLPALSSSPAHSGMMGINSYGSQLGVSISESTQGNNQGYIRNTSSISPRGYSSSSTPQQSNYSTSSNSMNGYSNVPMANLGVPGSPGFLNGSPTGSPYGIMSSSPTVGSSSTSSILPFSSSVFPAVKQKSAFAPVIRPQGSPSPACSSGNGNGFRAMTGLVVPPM
Experiment: Peptide pull-down with purified His-EBF2 fusion protein
Assay type: binding
Conditions: purified His-EBF2 expressed in E. coli; Figure 1C
From the text: The CDS region of EBF2 gene was inserted into pET‐28a plasmid to express recombinant His‐tagged EBF2 fusion protein (His‐EBF2) in E. coli (Figure 1C). […] To gain insight into this recognition, we analyzed the crystal structure of human EBF2 in complex with a H3K4me1‐containing histone H3 tail peptide. […] We further examined the expression of EBF2 in PDAC and adjacent tissues. […] Both EBF2 and H3K4me1 marks were co‐localized in the nuclei of PDAC or adjacent cells. Western blot analysis confirmed the reduction of EBF2 expression in PDAC tissues (Figure 1G), both in the nucleus and cytoplasm (Figure S1C, Supporting Information).
His‐EBF2 plasmid was constructed by inserting the CDS of EBF2 into PET‐28a vector, transformed into E. coli BL21 (DE3), and cultured with isopropyl‐β‐D‐thiogalactoside (IPTG; Beyotime) at 16 °C for 12 h, […]. BL21 cells were collected and sonicated in cold PBS buffer, and His‐fusion proteins were purified with High Affinity Nickel beads (Genscript, Nanjing, China). The purity of His‐fusion proteins was evaluated by SDS‐PAGE.

H3K4me3: C-terminal biotin-tagged 19 amino acid N-terminal peptide of H3K4me3
pull-down of purified His-EBF2 by peptide: not by H3K4me3
